Our source for the outcome and AC50 values is PubChem BioAssay (EPA / NIEHS).

A word on the AC50: it is the concentration giving half of the maximal activity seen.

The list shows a part of the results, in another mix than the full data. Calls of active or inactive are those of the source. The calls were made as follows: active = hit-call score of the fitted dose curve at least 0.9, where 1 is the maximum; inactive = score below 0.9.

A short description of this assay: ATG_ERE_CIS: Attagene CIS-FACTORIAL HepG2 Assay for Estrogen Response Element (ERE) (AID 2282940). The note with it: HepG2 ERE cis-reporter, Attagene RNA transcript; actives raise or lower the signal. On the procedure: ATG_CIS is a cell-based, multiplexed-readout assay that uses HepG2, a human liver cell line, with measurements taken at 24 hours after chemical dosing in a 24-well plate.ATG_ERE_CIS is one of 52 assay component(s) measured or calculated from the ATG_CIS assay. It is designed to make measurements of mRNA induction, a form of inducible reporter, as detected with fluorescence intensity signals by Reverse transcription polymerase chain reaction (RT-PCR) and Capillary electrophoresis technology.Data from the assay component ATG_ERE_CIS was analyzed into 1 assay endpoint. This assay endpoint, ATG_ERE_CIS, was analyzed with bidirectional fitting relative to DMSO as the negative control and baseline of activity. Using a type of inducible reporter, measures of mRNA for gain or loss-of-signal activity can be used to understand the reporter gene at the transcription factor-level as they relate to the gene ESR1. Furthermore, this assay endpoint can be referred to as a primary readout, because this assay has produced multiple assay endpoints where this one serves a reporter gene function. To generalize the intended target to other relatable targets, this assay endpoint is annotated to the nuclear receptor intended target family, where the subfamily is steroidal.
Human liver HepG2 cells are transiently transfected with multiple reporter transcription units (MRTUs) in 6-well plates using FuGene 6 reagent (Roche; 3 ml FuGene/1 mg DNA). The MRTU constructs are regulated by a cis-regulating element (promoter). […] A major difference between the CIS and TRANS system is that in CIS activities of endogenous TFs are measured, whereas the TRANS assay evaluates changes in activities of exogenous, chimeric NR-Gal4 proteins. […] At the end of 24 hour incubation, total RNA was isolated using TriZol reagent (Invitrogen). The isolated RNA is then reverse-transcribed using oligo(dT) primer and Mo-MLV reverse transcriptase (Invitrogen) with DNAse I (Ambion) treatment for 30 min. The one-tenth of the produced cDNA was amplified by PCR using Taq DNA polymerase (Invitrogen) and two reporter sequence-specific primers. The PCR products were fluorescently labeled by primer extension with 6-arboxyfluorescein (6-FAM) 5'-labeled reporter sequence-specific primer (2 min at 95 C, 20 s at 68 C and 10 min at 72 C) and these products were digested with 5U of HpaI (New England Biolabs) for 2h at 37 C. The fragments were purified using Qiaquick PCR columns (Qiagen), analyzed on an ABI 3130xL genetic analyzer (Applied Biosystems) with peak positions identified by using a set of X-rhodamine (ROX)-labeled MapMarker1000 molecular weight standards (BioVentures). The raw capillary electrophoresis data was processed using Attagraph software (Attagene).
For `COP(C)(=O)OC`, the compound was called inactive.

In the case of `Cc1ccc([N+](=O)[O-])cc1[N+](=O)[O-]`, the call was inactive.

As for `CN(C)CCCl`, the compound was classed as inactive.

`N#CBr`: the compound was classed as inactive.

As to `Cc1ccc([N+](=O)[O-])c([N+](=O)[O-])c1`, the result was inactive.

With `CC(C)OP(C)(=O)OC(C)C`, the call was inactive.

Regarding `Cc1c([N+](=O)[O-])cccc1[N+](=O)[O-]`, the result was inactive.

Consider `COc1ccc([N+](=O)[O-])cc1[N+](=O)[O-]`, for which the result was inactive.

Regarding `O=[N+]([O-])c1cccc([N+](=O)[O-])c1`, the call was inactive.

`Cc1cccc([N+](=O)[O-])c1[N+](=O)[O-]`: the AC50 is active: 19.5 µM.

`CC(C)N(CCO)C(C)C`: the compound was called inactive.
